Test results taken from ChEMBL document CHEMBL3997794, “Design and synthesis of benzodiazepine analogs as isoform-selective human lysine deacetylase inhibitors” (Eur J Med Chem, 2017).

The chains behind the UniProt entries cited, without tags or fusion partners. Where a name states a change or a piece, a line headed by the entry shows the natural chain unless it says otherwise.
UniProt O15379: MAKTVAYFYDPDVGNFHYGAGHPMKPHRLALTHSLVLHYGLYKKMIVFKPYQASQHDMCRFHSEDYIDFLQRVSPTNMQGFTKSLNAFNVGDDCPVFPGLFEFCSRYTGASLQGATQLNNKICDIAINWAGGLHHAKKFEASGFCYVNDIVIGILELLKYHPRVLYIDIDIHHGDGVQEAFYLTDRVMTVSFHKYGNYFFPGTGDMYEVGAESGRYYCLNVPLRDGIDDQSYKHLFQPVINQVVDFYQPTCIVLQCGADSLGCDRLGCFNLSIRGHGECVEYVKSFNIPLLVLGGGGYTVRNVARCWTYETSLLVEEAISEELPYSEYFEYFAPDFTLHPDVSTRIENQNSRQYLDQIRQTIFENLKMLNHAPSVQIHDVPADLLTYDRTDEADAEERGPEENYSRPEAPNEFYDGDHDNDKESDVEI

Target: Histone deacetylase 3 (Homo sapiens, UniProt O15379)
Assay: Inhibition of human KDAC3 using FITC-labeled p53 acetylated peptide as substrate after 60 mins by fluorescence assay

## O=C(O)CCCCN1C(=O)[C@H](CCC(=O)NC(c2ccccc2)(c2ccccc2)c2ccccc2)N=C(c2ccccc2)c2ccccc21
  IC50: > 30 µM
